The values that follow come from patent US8975265B2, “Substituted imidazo[1,2-a]pyrimidines and —pyridines” (Bayer Intellectual Property GmbH, priority 2010, dated 2015).

Protein sequences, listed by entry. Tags and fused reporters are not part of them.
UniProt P31749, whole entry: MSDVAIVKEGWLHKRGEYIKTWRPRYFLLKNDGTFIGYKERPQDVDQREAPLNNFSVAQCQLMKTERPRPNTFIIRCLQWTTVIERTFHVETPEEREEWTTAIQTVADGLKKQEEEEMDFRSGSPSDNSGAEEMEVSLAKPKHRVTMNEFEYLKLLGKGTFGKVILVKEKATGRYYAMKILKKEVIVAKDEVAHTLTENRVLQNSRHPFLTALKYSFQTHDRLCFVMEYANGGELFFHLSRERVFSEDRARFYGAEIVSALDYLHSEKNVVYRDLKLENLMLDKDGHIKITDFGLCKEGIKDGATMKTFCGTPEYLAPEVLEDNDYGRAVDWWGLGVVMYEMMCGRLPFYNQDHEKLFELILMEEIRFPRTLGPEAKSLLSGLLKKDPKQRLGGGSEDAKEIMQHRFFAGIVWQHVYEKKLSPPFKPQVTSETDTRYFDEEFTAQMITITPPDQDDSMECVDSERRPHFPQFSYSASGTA

For assay [1], the target named is His-tagged human recombinant kinase full-length Akt1 (Homo sapiens (Human), UniProt P31749). Kind of assay: Akt1 kinase assay (TR-FRET). The following applies: read-out: Akt1, median IC50; 10 μM ATP.
In assay [2] the test system is p-AKT1/2/3-S473 in KPL4 breast tumour cell line. In words: Cellular p-AKT1/2/3-S473 assay. The following applies: read-out: pAKT-S743 median IC50, 2 hours treatment.
For assay [3], the system named is KPL-4 breast cancer cell line. In words: Tumor cell proliferation assay (CellTiter-Glo, 72 h), KPL-4. The following applies: read-out: KPL-4 proliferation IC50, 72h drug exposure. (In general: ATP-based viability assays read luminescence as a measure of living cells.)

Consider `NC1(c2ccc(-c3nc4cc(-n5ccccc5=O)ccn4c3-c3ccccc3)cc2)CCC1`, for which the IC50 in assay [1] was found to be 2.27 µM; in assay [2], 1.65 µM; in assay [3], 10 µM.
